Activation data for 99 molecules are collected here from PubChem BioAssay AID686992 (Broad Institute, 2013).

Sequences of proteins named here, by UniProt entry; tags and fusion partners are left off. A change or cut given only in a name is not applied to a line headed by its entry.
UniProt P16581: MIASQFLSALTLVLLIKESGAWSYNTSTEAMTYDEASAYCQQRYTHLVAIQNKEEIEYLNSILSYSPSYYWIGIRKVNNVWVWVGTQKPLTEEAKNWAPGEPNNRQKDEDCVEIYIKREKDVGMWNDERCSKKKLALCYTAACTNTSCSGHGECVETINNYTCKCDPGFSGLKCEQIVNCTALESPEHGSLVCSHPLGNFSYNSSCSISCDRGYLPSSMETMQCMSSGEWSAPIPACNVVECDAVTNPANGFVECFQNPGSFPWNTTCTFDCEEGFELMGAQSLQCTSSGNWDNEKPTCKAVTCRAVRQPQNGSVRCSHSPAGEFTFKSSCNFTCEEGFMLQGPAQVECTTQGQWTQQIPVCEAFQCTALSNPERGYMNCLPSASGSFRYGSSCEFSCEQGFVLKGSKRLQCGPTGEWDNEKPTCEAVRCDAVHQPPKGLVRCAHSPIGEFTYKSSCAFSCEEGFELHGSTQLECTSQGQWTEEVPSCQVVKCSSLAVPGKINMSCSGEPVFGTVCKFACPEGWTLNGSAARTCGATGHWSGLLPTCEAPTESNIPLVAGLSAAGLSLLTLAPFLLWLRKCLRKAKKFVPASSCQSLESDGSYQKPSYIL

This is a selection; strong and weak results do not stand in their true shares. The source made the active and inactive calls.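 The calls were made as follows: active = mean E-selectin-positive cell signal at least 10% of the positive control, reached in at least 60% of replicates, without over 20% cell loss; inconclusive = no rule given, readout overlaps actives, possibly toxicity-flagged; inactive = the rest, including those meeting only one limit.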

The target of the assay is E-selectin (Homo sapiens) (UniProt P16581). The assay is described as follows: inducers of endothelial E-selectin expression – imaging, HUVEC, immunofluorescence imaging, single point, primary screen (AID 686992).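 Also: signal is the percent of cells scored E-selectin positive by PE staining.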 To be noted: at 7.58 µM, hits give high values, normalized: neutral wells 0, TNF-alpha wells 100. The gist of the method:
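Read-out basis: % PE-positive cells; Test system: HUVEC primary endothelial cells; Technique: immunofluorescence imaging; Dosing: single-point compound dose.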
Take `CCN(N=Nc1nonc1N)c1nonc1N`: the activation was inactive: -0.0175%. In the case of `CCCC1OP(N)(=O)OCC1CC` (centres undefined), the activation is inactive: 0.236%.

`O=C(O)c1ccccc1[As](=O)(O)O`: the activation was inactive: 0.07%. Turning to `CC(=O)Nc1ccc([As](=O)(O)O)cc1`, the activation was inactive: -0.5%.

With `CN(C)P(=O)(N(C)C)n1c(Nc2ccccc2)nnc1-c1ccccc1`, the activation was inactive: 0.0915%. On to `O=P(Nc1nc2ccc(Cl)cc2s1)(c1ccccc1)c1ccccc1`, for which the activation was inactive: 6.57%. For `CN(C(=O)Cc1ccc(Cl)c(Cl)c1)[C@H]1CCCC[C@@H]1N1CCCC1` the value was inactive: 1.69%; for `Cc1ccc(NP(=O)(Oc2ccccc2F)Oc2ccccc2F)nc1`, inactive: 1.29%. The figure for `Nc1cc(N)c2nonc2c1[N+](=O)[O-]` is inactive: 0.0885%; for `O=C(NC(Sc1ccncn1)C(Cl)(Cl)Cl)c1ccccc1` (centres undefined) it is inactive: -0.665%; for `NC(=O)c1cc([N+](=O)[O-])cc([N+](=O)[O-])c1N` it is inactive: 4.28%. Turning to `Cc1ccc(N/C(=N/P(=O)(N2CCOCC2)N2CCOCC2)N2CCOCC2)cc1`, the activation was inactive: 6.01%. The figure for `CN(C(=O)Cc1ccc(Cl)c(Cl)c1)[C@H]1CCCC[C@H]1N1CCCC1` is inactive: 0.955%; for `Clc1ccc(Cl)c(NC2=NCC(CBr)S2)c1` (centres undefined) it is inactive: 0.345%. With `C[N+]1=C2C=CC=CC=C2SC12C([N+](=O)[O-])=CC([N+](=O)[O-])=C[C-]2[N+](=O)[O-]` (centres undefined), the activation was inactive: -0.0585%. On to `Nc1ccc([As](=O)(O)c2ccc(N)cc2)cc1`, for which the activation is inactive: 3.01%.

In the case of `CC(C)c1nc(Nc2ccccc2)n(P(=O)(N(C)C)N(C)C)n1`, the activation is inactive: 0.021%. For `c1cc(-c2nn[nH]n2)ccc1-c1nn[nH]n1`, the activation is inactive: -0.293%.

Turning to `COc1ccc(C2=NCC(CBr)S2)cc1` (centres undefined), the activation is inactive: 9.03%. For `Cc1ccc(NP(=O)(Oc2ccccc2)Oc2ccccc2)nc1` the value was inactive: -2.04%; for `CC(C)(C)C(=O)NC(Sc1ccncn1)C(Cl)(Cl)Cl` (centres undefined), inactive: 5.83%; for `O=[N+]([O-])c1ncn(CCn2ncnc2[N+](=O)[O-])n1`, inactive: 0.532%. As to `O=[N+]([O-])c1cccc(NC2=NCC(CBr)S2)c1` (centres undefined), the activation was inactive: -0.149%. Take `COC(=O)C1(C)COP(=O)(Nc2ccccc2)OC1` (centres undefined): the activation is inactive: 0.031%. The figure for `O=C(O)CNc1ccc([As](=O)(O)O)cc1` is inactive: -0.001%. For the molecule `O=P1(N(CCCl)CCCl)OCCCS1` (centres undefined), the activation is inactive: 0.0545%. For `O=C(Nc1cc([As](=O)(O)O)ccc1O)c1ccccc1`, the activation was inactive: -1.79%.

For the molecule `CC(=O)NC(SC(=S)N(C)C)C(Cl)(Cl)Cl` (centres undefined), the activation is inactive: 2.31%. Regarding `O=[N+]([O-])c1ncn(CCn2cnc([N+](=O)[O-])n2)n1`, the activation was inactive: 9.73%. Regarding `O=[As](O)(c1ccccc1)c1ccc(O)cc1`, the activation was inactive: -0.435%. The figure for `C(Cc1nn[nH]n1)Cc1nn[nH]n1` is inactive: 1.09%; for `C/C(N)=N\P(=O)(OCc1ccccc1)OCc1ccccc1` it is inactive: -0.226%; for `Nc1ccc(CCCCOc2ccccc2)cc1` it is inactive: 0.651%. For `COc1ccc(N)c([N+](=O)[O-])c1[N+](=O)[O-]` the value was inactive: -0.303%; for `C[C@H]1OP(=O)(Oc2ccccc2)[C@H](O)[C@H](O)[C@H]1N=[N+]=[N-]` (some centres undefined), inactive: -0.0175%. The figure for `COC(=O)C1(C)COP(=O)(NCc2ccccc2)OC1` (centres undefined) is inactive: 0.981%. With `N#C/C(=C\c1ccc(N(CCBr)CCBr)cc1)C(N)=O`, the activation was inactive: 1.3%. As to `C[C@@H]1C=CCP(=O)(Oc2ccccc2)O1` (some centres undefined), the activation was inactive: -0.085%. The figure for `C[C@H]1OP(=O)(Oc2ccccc2)C[C@@H]2O[C@@H]21` (some centres undefined) is inactive: -0.073%. The figure for `Cc1ccccc1CN(C)C(=O)COC(=O)C(O)(c1ccccc1)c1ccccc1` is inactive: 2.3%; for `CC(=O)Nc1ccc(Oc2c([N+](=O)[O-])cc([N+](=O)[O-])cc2[N+](=O)[O-])cc1` it is inactive: 0.223%. Take `CC(=O)Nc1ccc([As](=O)(O)O)c(O)c1`: the activation is inactive: 2.6%. `CCc1cc(O)c([N+](=O)[O-])c(C)c1[N+](=O)[O-]`: the activation was inactive: -0.355%. The figure for `O=C(OC1CN2CCC1CC2)c1ccccc1` (centres undefined) is inactive: -0.036%; for `CN(C)C(=O)Oc1noc2ccccc12` it is inactive: 0.0945%. Regarding `CC(NC(=O)COC(=O)C(O)(c1ccccc1)c1ccccc1)c1ccccc1` (centres undefined), the activation was inactive: 0.518%. For `CCNC(=S)/N=C(\N)N[N+](=O)[O-]` the value was inactive: 0.03%; for `NC(=O)Nc1ccc([As](=O)(O)O)cc1`, inactive: 0.857%. For `CN(C(=O)Cc1ccc(Cl)c(Cl)c1)[C@H]1CC[C@@]2(CCCO2)C[C@@H]1N1CCCC1` the value was inactive: 0.18%. For `CN(C)C(=O)c1cc([N+](=O)[O-])cc2c1-c1c(cc([N+](=O)[O-])cc1[N+](=O)[O-])C2=O` the value was inactive: -3.59%. For the molecule `CN(C(=O)Cc1ccccc1)[C@@H]1CC[C@]2(CCCO2)C[C@H]1N1CCCC1`, the activation is inactive: -0.0535%. For `N#CCCN(C(=O)COC(=O)C(O)(c1ccccc1)c1ccccc1)c1ccc(F)cc1`, the activation was inactive: -0.499%.

Take `O=P(Nc1nccs1)(Oc1ccccc1)Oc1ccccc1`: the activation is inactive: 1.72%.

Regarding `O=C(O)COc1ccc([As](=O)(O)O)cc1[N+](=O)[O-]`, the activation was inactive: 0.646%.

Take `Nc1ccccc1[As](=O)(O)c1ccccc1`: the activation is inactive: -0.53%. For `CCCOP(=S)(Nc1nc(N)cc(=O)[nH]1)OCCC` the value was inactive: -0.038%; for `CS(=O)(=O)c1ccc(Cl)c(NC(=O)COC(=O)C(O)(c2ccccc2)c2ccccc2)c1`, inactive: -0.597%; for `COc1cc(C(=O)NCC2(N3CCOCC3)CCCCC2)cc(Cl)c1OC(C)C`, inactive: -3.97%. Take `O=[As](O)(O)c1cccnc1`: the activation is inactive: -0.21%. For `O=C(OC1CN2CCC1CC2)c1ccc(Cl)cc1` (centres undefined) the value was inactive: -3.09%; for `O=[As](O)(c1cccc(O)c1)c1cccc(O)c1`, inactive: 0.158%; for `COc1ccccc1CNC(=O)COC(=O)C(O)(c1ccccc1)c1ccccc1`, inactive: -0.335%. Consider `CN(C(=O)Cc1ccc(Cl)c(Cl)c1)[C@@H]1CCCC[C@H]1N1CCCC1`, for which the activation is inactive: 0.089%.

As to `CC(C)/C=N\N=C(\N)N[N+](=O)[O-]`, the activation is inactive: 3.78%. On to `CN(CCCl)Cc1cc(Cl)c(NC2=NCCN2)c(Cl)c1`, for which the activation was inactive: 1.18%.

Regarding `CCOP(=O)(NC(=NC(C)c1ccccc1)NC(C)c1ccccc1)OCC` (centres undefined), the activation was inactive: -0.155%. The figure for `CC(C)(C)C(=O)NC(Sc1ncccn1)C(Cl)(Cl)Cl` (centres undefined) is inactive: -0.0605%.

For `O=P1(N(CCCl)CCCl)NCCC(C(F)(F)F)O1` (centres undefined), the activation was inactive: 4.62%. Consider `Cc1ccc(S(=O)(=O)N(CCCN)CCCc2c(C)nc(N)[nH]c2=O)cc1`, for which the activation is inactive: -0.176%. `O=[As](O)(c1cccs1)c1cccs1`: the activation was inactive: 0.016%.

`Nc1cccc([As](=O)(O)c2ccccc2)c1`: the activation was inactive: 2.3%. Turning to `Cc1ccc(C(=O)OC2CN3CCC2CC3)cc1` (centres undefined), the activation was inactive: 0.368%.

For `CCCC1OP(=O)(Nc2ccccc2)OCC1CC` (centres undefined), the activation was inactive: -0.215%. For `O=C(/C=C/c1ccccc1)OC1CN2CCC1CC2` (centres undefined) the value was inactive: 5.34%; for `CN(C)C1(CNC(=O)c2ccc(S(C)(=O)=O)cc2)CCCCC1`, inactive: 1.09%. The figure for `CCOC(=O)Nc1cccc([As](=O)(O)O)c1` is inactive: -0.0565%; for `O=[N+]([O-])c1ccc(Nc2ccc(Oc3ccc([N+](=O)[O-])cc3[N+](=O)[O-])cc2)c([N+](=O)[O-])c1` it is inactive: -0.024%; for `Cc1cc(SC(NC=O)C(Cl)(Cl)Cl)ncn1` (centres undefined) it is inactive: -0.164%.

Consider `O=C(O)C(O)c1ccc(N(CCCl)CCCl)cc1` (centres undefined), for which the activation is inactive: 0.075%. For the molecule `CCOC(=O)Nc1ccc([As](=O)(O)O)c(O)c1`, the activation was inactive: 0.979%.

Regarding `COP(=O)(OC)N1CC1c1ccccc1` (centres undefined), the activation is inactive: 1.45%. The figure for `CCOC(=O)c1ccc(NC(=O)C(C)(CCl)SC)cc1` (centres undefined) is inactive: 2.1%; for `O=C(OC1CN2CCC1CC2)c1cccc([N+](=O)[O-])c1` (centres undefined) it is inactive: -0.057%.

Take `COC(=O)C1(C)COP(=O)(N2CCCC2)OC1` (centres undefined): the activation is inactive: 0.089%.

As for `O=C(Nc1ccncc1[N+](=O)[O-])c1ccc([N+](=O)[O-])cc1[N+](=O)[O-]`, the activation was inactive: 0%.

In the case of `O=C(O)C(=O)c1ccc(N(CCCl)CCCl)cc1`, the activation is inactive: 0.094%. For `COc1ccc(N/C(=N/P(=O)(N2CCOCC2)N2CCOCC2)N2CCOCC2)cc1` the value was inactive: -0.141%.

On to `Cc1c2c(nc3ccccc13)SC(C(Cl)Cl)C2` (centres undefined), for which the activation was inactive: 1.75%. The figure for `COc1cc(I)ccc1[As](=O)(O)O` is inactive: -0.392%; for `O=P1(N(CCCl)CCCl)Nc2ccccc2N1` it is inactive: -0.489%.

For the molecule `O=P1(N(CCCl)CCCl)OCCCN1CCCl` (centres undefined), the activation was inactive: -0.274%.

On to `CC(C)c1ccc(OP(=O)(Nc2ccccn2)Oc2ccccc2F)cc1` (centres undefined), for which the activation is inactive: 0.135%. For the molecule `COC(=O)C1(C)COP(=O)(N2CCCCCC2)OC1` (centres undefined), the activation was inactive: 0.086%. `O=C(OC1CN2CCC1CC2)c1cccc2[nH]cnc12` (centres undefined): the activation was inactive: 0.336%. For `COc1cc(C(=O)NCC2(N3CCOCC3)CCCCC2)ccc1OCC(C)C` the value was inactive: -0.285%. Regarding `C[As](=O)(O)c1cccc(C(=O)O)c1`, the activation was inactive: -0.022%. For the molecule `O=[As](O)(c1ccc(O)cc1)c1ccccc1O`, the activation was inactive: -0.08%. The figure for `Cc1ccc(OP(=O)(Nc2ccc([N+](=O)[O-])cn2)Oc2ccc(C)cc2)cc1` is inactive: 0.103%. In the case of `[N-]=[N+]=NC1CCCCC1NC(=O)c1cc([N+](=O)[O-])cc([N+](=O)[O-])c1` (centres undefined), the activation was inactive: 0.119%.
